AlphaSeq binding of Ab-91 heavy chain variants to a spike HR2 peptide

From the AlphaSeq antibody data of Engelhart et al. 2022 (doi:10.1038/s41597-022-01779-4), copy in the FLAb collection.

Binding partner: SARS-CoV-2 spike HR2 peptide, sequence PDVDLGDISGINAS.

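The parent was found by panning a naive human phage display library on the peptide. The library (AAYL51) carries one to three amino acid substitutions per variant, with no insertions or deletions. Affinity was read by AlphaSeq, a pooled yeast mating assay with surface-displayed partners. After mating in shaken culture at 30 °C for 16 h, diploids were selected and their barcode pairs sequenced. Each replicate has its own calibration line, from reference interactions of the BCL2 family. There are three technical replicates.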

The variants keep the light chain, the linker and the frameworks of Ab-91 (scFv order VL, the linker GGGGSGGGGSGGGGS, VH).
VL: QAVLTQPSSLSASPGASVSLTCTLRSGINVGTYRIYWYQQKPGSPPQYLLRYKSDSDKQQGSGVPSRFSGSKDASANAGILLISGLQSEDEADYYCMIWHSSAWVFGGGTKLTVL
VH: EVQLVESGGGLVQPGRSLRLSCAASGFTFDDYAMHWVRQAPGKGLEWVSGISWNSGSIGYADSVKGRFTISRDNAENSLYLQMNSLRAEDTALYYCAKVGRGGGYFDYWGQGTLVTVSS

Substitutions are numbered in sequence along the VH above, starting at 1 (not Kabat). Affinities are written as log10 Kd with Kd in nM; a lower number is a better binder. "n.d." means that the variant was in the library but no mating with the target was seen in that replicate; the authors take this as a sign of poor binding, and no number exists. In this assay the parent's reference entry averaged 1.86; its copy inside this library read 0.88. Empty control strains, which show no peptide, gave a signal in 21% of pairings with library AAYL51; the median was 4.54 and 95% of these signals were weaker than 3.26. No background was subtracted. The control count says in how many pairings with the empty strains this scFv gave a signal, with their mean in brackets.

changes	replicates, log10 nM	empty controls
D62M G102P Y105G	n.d. n.d. n.d.	2/9 (4.24)
S52G W53D G102P	n.d. n.d. n.d.	1/9 (3.63)
W53V I58W G103N	5.40 n.d. n.d.	4/9 (4.37)
H35S G56T R101V	n.d. n.d. n.d.	1/9 (3.27)
I51F Y60N F106C	n.d. n.d. n.d.	2/9 (5.21)
D31N W53H	5.24 n.d. n.d.	1/9 (4.45)
S55V Y60F V99S	4.84 5.20 4.83	0/9
G50T W53M S55G	5.09 n.d. n.d.	0/9
K65M G103C Y105P	4.27 5.00 n.d.	2/9 (4.31)
G26I G59M	4.84 4.91 n.d.	5/9 (5.05)
Y32N S63H	3.91 n.d. 2.83	0/9
A61E D62S R101P	4.38 4.24 n.d.	3/9 (3.78)
G59L V64N Y108G	5.72 5.05 n.d.	2/9 (4.26)
F27G V99I D107P	n.d. n.d. n.d.	1/9 (2.53)
G26N R101N D107W	4.56 4.66 4.64	7/9 (5.08)
D30N D107I Y108F	n.d. n.d. 3.62	0/9
F29C S55C S57R	n.d. n.d. n.d.	0/9
I51S W53I K65H	n.d. 5.54 n.d.	2/9 (4.76)
D31I G50R G100H	n.d. n.d. n.d.	0/9
F27D F29S S55K	4.61 4.25 n.d.	3/9 (4.32)
D31G Y32D S52R	5.03 n.d. n.d.	1/9 (3.57)
Y32H I58R Y60P	n.d. n.d. n.d.	2/9 (5.56)
T28F W53C V64D	4.39 n.d. n.d.	2/9 (4.49)
H35N V99C G100R	n.d. n.d. n.d.	0/9
H35G D62N G104V	4.58 4.90 3.99	6/9 (3.67)
F27A M34T Y108R	4.16 4.39 4.18	6/9 (4.93)
Y60M K65M Y105N	n.d. n.d. n.d.	0/9
V64C Y105N Y108F	4.38 4.98 n.d.	8/9 (4.24)
T28W K65V F106Q	n.d. 4.00 n.d.	1/9 (3.46)
I58K K65M V99D	0.80 0.56 0.27	0/9
F27A D30C G102S	n.d. n.d. n.d.	0/9
I51C F106D D107V	6.15 n.d. n.d.	3/9 (4.83)
G56Y Y105W	3.58 4.11 2.35	4/9 (5.23)
T28F D62L G100R	3.15 n.d. n.d.	1/9 (3.15)
A33S S52Y I58E	6.79 5.13 n.d.	6/9 (5.37)
S57K Y60H	n.d. n.d. n.d.	0/9
D30R I51A S63M	n.d. n.d. n.d.	1/9 (2.89)
G26D V64F Y108L	3.98 n.d. n.d.	1/9 (3.52)
D31H W53I N54H	3.28 3.46 3.48	7/9 (4.33)
G56I V99W G103Y	n.d. n.d. n.d.	0/9
A33W G59F D107E	n.d. n.d. n.d.	2/9 (4.20)
I51T G59L A61Y	n.d. n.d. n.d.	0/9
W53P N54H	3.93 2.73 2.54	3/9 (4.43)
A33L S55N	n.d. n.d. n.d.	0/9
G26H K65R	2.35 3.02 3.37	1/9 (4.63)
F27K T28W D62I	4.50 n.d. n.d.	2/9 (4.94)
G59D A61F	n.d. n.d. n.d.	0/9
A33F V64D D107Q	4.66 4.57 5.32	8/9 (5.67)
G50A G56F K65C	4.03 n.d. n.d.	3/9 (3.88)
W53E S63Y	n.d. 4.06 n.d.	3/9 (4.67)
D31R N54R S55D	n.d. 4.41 n.d.	2/9 (4.91)
H35L I58A Y60W	n.d. n.d. n.d.	0/9

For reference, 7 entries of the list once more:

changes,"replicates, log10 nM",empty controls
W53E S63Y,n.d. 4.06 n.d.,3/9 (4.67)
A33F V64D D107Q,4.66 4.57 5.32,8/9 (5.67)
F27G V99I D107P,n.d. n.d. n.d.,1/9 (2.53)
W53P N54H,3.93 2.73 2.54,3/9 (4.43)
H35G D62N G104V,4.58 4.90 3.99,6/9 (3.67)
D31R N54R S55D,n.d. 4.41 n.d.,2/9 (4.91)
G56Y Y105W,3.58 4.11 2.35,4/9 (5.23)